Results taken from publication PMC4686899, “Peptides derived from CXCL8 based on in silico analysis inhibit CXCL8 interactions with its receptor CXCR1” (Scientific Reports, 2015).

Test system: THP-1 cell adhesion to CXCL8-treated HMEC-1
Format: cell-based, human
Conditions: at a high peptide concentration; 25 ng/ml CXCL8, THP-1 on HMEC-1, mean from three independent experiments
Experimental: Human micro-vascular endothelial cell-1 (HMEC-1, from American Type Culture Collection Manassas, USA) was maintained in MCDB 131 medium (Sigma, USA) with L-glutamine and fetal bovine serum (Sigma, USA) to a final concentration of 15%. The medium was supplemented with 500 units/ml penicillin (Biowest, USA), 500 μg/ml streptomycin (Biowest, USA), 10 ng/ml Epidermal Growth Factor (ProSpec, USA) and 1 µg/ml hydrocortisone (Sigma, USA). The THP-1 cells were maintained in the RPMI-1640 medium (Invitrogen, USA) with 10% FBS. For the assay of THP-1 cell adhesion to HMEC-1 monolayers, confluent HMEC-1 cell monolayers cultured on 24-well plates were pretreated with peptides for one hour and activated with 25 ng/ml LPS (Sigma, USA) or full length CXCL8 (ProSpec, USA) for 18 hours. THP-1 monocytes were suspended in RPMI 1640 and prelabeled with 5 mM Calcein-AM (Invitrogen, USA) for 30 minutes. Before the THP-1 cells were added to HMEC-1, the monolayers were washed twice to remove LPS or CXCL8. Fluorescence labeled monocytes (3 × 10^5 cells/well) were then added to HMEC-1 and incubated for 30 minutes at 37 °C. […] The images of adhered THP-1 cells were photographed (five images per well) under fluorescent microscopy and the number of attached monocytes was counted with the software AlphaImager 2200 (Alpha Innotech, USA).

| SMILES | monocyte binding [%] |
| --- | --- |
| CC[C@H](C)[C@H](NC(=O)[C@H](CS)NC(=O)[C@H](CCC(N)=O)NC(=O)[C@H](CS)NC(=O)[C@@H](N)CCCNC(=N)N)C(=O)N[C@@H](CCCCN)C(=O)N[C@H](C(=O)N[C@@H](Cc1ccc(O)cc1)C(=O)N[C@@H](CO)C(=O)N[C@@H](CCCCN)C(=O)N1CCC[C@H]1C(=O)N[C@@H](Cc1ccccc1)C(=O)N[C@@H](Cc1c[nH]cn1)C(=O)N1CCC[C@H]1C(=O)N[C@@H](CCCCN)C(=O)N[C@@H](Cc1ccccc1)C(=O)O)[C@@H](C)O [p_wt16] | 85 |
| CC[C@H](C)[C@H](NC(=O)[C@H](Cc1ccccc1)NC(=O)[C@H](CCCCN)NC(=O)[C@@H]1CCCN1C(=O)[C@H](Cc1c[nH]cn1)NC(=O)[C@H](Cc1ccccc1)NC(=O)[C@@H]1CCCN1C(=O)[C@H](CCCCN)NC(=O)[C@H](CO)NC(=O)[C@H](Cc1ccc(O)cc1)NC(=O)[C@@H](NC(=O)[C@H](CCCCN)NC(=O)[C@@H](NC(=O)[C@H](CS)NC(=O)[C@H](CCC(N)=O)NC(=O)[C@H](CS)NC(=O)[C@@H](N)CCCNC(=N)N)[C@@H](C)CC)[C@@H](C)O)C(=O)N[C@@H](CCCCN)C(=O)O [p_wt18] | 95 |
